Each structure is given as a SMILES string. Like-named read-outs stand apart in the source and are kept apart here.

By UniProt entry, the sequences of proteins in these tests, tags left out.
UniProt Q9NWZ3, whole entry: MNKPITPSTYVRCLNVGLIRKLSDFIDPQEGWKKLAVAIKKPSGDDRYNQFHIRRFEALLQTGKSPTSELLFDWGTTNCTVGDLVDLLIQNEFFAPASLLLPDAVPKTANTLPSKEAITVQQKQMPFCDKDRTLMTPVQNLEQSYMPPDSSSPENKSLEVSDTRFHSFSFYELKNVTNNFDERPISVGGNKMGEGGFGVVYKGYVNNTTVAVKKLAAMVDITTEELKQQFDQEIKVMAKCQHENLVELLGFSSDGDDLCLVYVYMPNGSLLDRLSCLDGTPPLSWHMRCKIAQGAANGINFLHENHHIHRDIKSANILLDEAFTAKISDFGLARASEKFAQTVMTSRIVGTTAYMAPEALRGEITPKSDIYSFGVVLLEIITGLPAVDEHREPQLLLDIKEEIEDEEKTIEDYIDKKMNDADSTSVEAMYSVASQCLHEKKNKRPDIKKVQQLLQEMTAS

The assay addresses IRAK4 (Homo sapiens, UniProt Q9NWZ3). Put plainly: IRAK4 MSD Degradation in OCI-LY10. The assay is classed as cell-based.
The mark [1] stands for this setting: read-out: IRAK4 degradation in OCI-LY10 at 4 hrs: DC50, OCI-LY10 cells, 4 hrs incubation.
[2] abbreviates: read-out: IRAK4 degradation in OCI-LY10 at 24 hrs: DC50, OCI-LY10 cells, 24 hrs incubation.

For the compound `O=C1CCN(c2cncc3c(C#CCN4CCN(C[C@H]5CC[C@H](n6cc(NC(=O)c7cnn8ccc(N9C[C@H]%10C[C@@H]9CO%10)nc78)c(C(F)F)n6)CC5)CC4)cccc23)C(=O)N1`, the half-maximal degradation concentration (DC50) reads like this: under setting [1], less than 10 nM; under setting [2], less than 10 nM.
For `Cn1c(=O)n(C2CCC(=O)NC2=O)c2cccc(C#CCN3CCN(C[C@H]4CC[C@H](n5cc(NC(=O)c6cnn7ccc(N8CC8)nc67)c(C(F)F)n5)CC4)CC3)c21` (some centres unmarked), the 50% degradation concentration (DC50) under setting [1] lay within 10 to 100 nM and the DC50 under setting [2] fell in the range of 10 to 100 nM.
As for `CN(C[C@H]1CC[C@H](n2cc(NC(=O)c3cnn4cccnc34)c(C(F)F)n2)CC1)C1CCN(c2cccc3c2n(C)c(=O)n3C2CCC(=O)NC2=O)CC1(F)F` (some centres unmarked) [I-376], the DC50 is, setting by setting: under setting [1], greater than 200 nM; under setting [2], 10 to 100 nM.
The corresponding values for `Cn1c(=O)n(C2CCC(=O)NC2=O)c2cccc([C@H]3C[C@H](C(=O)N4CCN(C[C@H]5CC[C@H](n6cc(NC(=O)c7cnn8ccc(N9C[C@H]%10C[C@@H]9CO%10)nc78)c(C(F)F)n6)CC5)CC4)C3)c21` (some centres unmarked) are greater than 200 nM and less than 10 nM.

What is called DC50 is the midpoint of the concentration-degradation curve.

Values taken from US12091411B2, “IRAK degraders and uses thereof” (Kymera Therapeutics, Inc., priority 2022, dated 2024).
